By UniProt entry, the sequences of proteins in these tests, tags left out. Residues count along the entry.
UniProt Q9NTG7, 102-399 limits assumed: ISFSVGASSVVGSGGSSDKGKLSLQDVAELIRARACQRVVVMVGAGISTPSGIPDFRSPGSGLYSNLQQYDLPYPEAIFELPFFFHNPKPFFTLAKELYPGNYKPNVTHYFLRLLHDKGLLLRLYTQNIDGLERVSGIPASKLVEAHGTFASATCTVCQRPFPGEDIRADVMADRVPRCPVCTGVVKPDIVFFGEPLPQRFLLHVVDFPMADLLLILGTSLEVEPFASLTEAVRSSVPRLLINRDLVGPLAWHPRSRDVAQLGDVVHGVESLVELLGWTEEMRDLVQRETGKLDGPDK

In patent US20260109713A1, “SIRTUIN MODULATING COMPOUNDS, INCLUDING SIRTUIN ACTIVATING COMPOUNDS, AND APPLICATIONS THEREOF” (CODAGEN BIOSCIENCES, INC., priority 2022, published 2026):

What was measured:
Format in all cases: biochemical
hSIRT3 102-399 [1] = biological target: T1, hSIRT3 102-399 (Homo sapiens, UniProt Q9NTG7); experiment: HPLC assay of hSIRT3 102-399 deacetylation of MnSOD peptide, Conditions I (steady state): 1000 μM NAD+, 50 μM MnSOD peptide
hSIRT3 102-399 [2] = biological target: T1, hSIRT3 102-399; experiment: HPLC assay of hSIRT3 102-399 deacetylation of MnSOD peptide, Conditions II (non-steady state): 50 μM NAD+, 600 μM peptide
hSIRT3 = hSIRT3 (Homo sapiens, UniProt Q9NTG7); experiment: Fluorescence-based SIRT3 deacetylation assay using FdL2 peptide, steady state (Conditions I); conditions: triplicate

- Conditions I, Effect (hSIRT3 102-399 [1]; Conditions I (steady state), HPLC/FdL): Slight Activator
- AC50 (hSIRT3 102-399 [1]; read-out: AC50 (over 50% of maximal activation effect), dose-response, 1 mM NAD+, 50 μM MnSOD peptide, t=30 min): < 1000 nM
- Conditions II, Effect (hSIRT3 102-399 [2]): Activator
- Activity test, Conditions I, FdL (hSIRT3): 100.2
SMILES: CC(O)c1cccc(NC(=O)c2cc3n(n2)C(C(F)(F)F)CC(c2ccc(Cl)cc2)N3)c1 (stereo not shown)
